Molecular target: T1, scFv TS-A12/22
T1 construct: Obtained from TS-A12 by VL chain shuffling; also called TS-A12/22 antibody
Assay: competitive ELISA, peptide pre-incubated with scFv, then binding to C5 on solid phase
Text: In order to verify this hypothesis, a peptide of 18 amino acids was synthesised, with sequence: KDMQLGR^{↓}[…] (P5A-18 also termed C5cs comprising SEQ IDN15). This peptide corresponds to region 727-744 of the mature protein and comprises the cleavage site of C5 convertase (indicated by the arrow) between glycine 733 and arginine 734 according to SwissProt numbering for human C5 (SEQ ID P01031). The peptide was used in a competitive ELISA assay on the C5 protein on solid phase. Before binding to the solid phase, the TS-A12/22 antibody was pre-incubated with the P5A-18 peptide, corresponding to amino acids 727-744 of the C5 component, or with an unrelated peptide of sequence […] (SEQ ID No. 16 of sequence listing) corresponding to a fibronectin derived peptide termed CS5.

B1: P5A-18 peptide (KDMQLGRLHMKTLLPVSK) (peptide)
peptide: KDMQLGRLHMKTLLPVSK
notes: Said to correspond to region 727-744 of the mature human C5 protein; also called C5cs
Which Ki does the source give for B1 here?
The Ki was 1 µM.

— patent US20060115476A1 (ADIENNE, published 2006)
